Assay results as given in US5763219.

Target: histone H1

phosphorylation of histone H1 [fold] | Substance
2 | cycEΔ9/cdk2 complex (from UniProt P24941) (enzyme)
2 | cycEΔ148/cdk2 complex (from UniProt P24941) (enzyme)
